Test results from ChEMBL document CHEMBL4433206, “Novel Lysine-Based Thioureas as Mechanism-Based Inhibitors of Sirtuin 2 (SIRT2) with Anticancer Activity in a Colorectal Cancer Murine Model” (J Med Chem, 2019).

System: CCD-841CoN
Assay: Growth inhibition of human CCD-841-CoN cells after 72 hrs by CellTiter-Blue assay
Assay type: cell-based
Summary of the method: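 CCD 841 CoN normal colon cells grown in DMEM with 10% FBS at 37 °C, 5% CO2. 3000 cells/well seeded, 20 h at 37 °C. Inhibitor added at final 1–100 μM, then 72 h at 37 °C. Viability read by CellTiter-Blue after 4 h at 37 °C, fluorescence 560 nm excitation/590 nm emission. GI50 derived.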

## CCCCCCCCNC(=S)NCCCC[C@H](NC(=O)OCc1ccccc1)C(=O)Nc1ccccc1
  GI50: 137 µM
